# Values joined by “and” are separate entries in the source; they are usually repeats but may differ in a detail not shown here. Equal values may be shown once. “Also recorded” adds a separate entry of the source.
# Experiments:
# [1] = tested on: MCL neuropeptide concentration (SP, CGRP, NPY, VIP); assay: Neuropeptides in MCL after capsaicin (RIA, immunofluorescence); assay type: in vivo, rat
# Protocol: Into Groups 1 (n=6 animals) and Group 3 (n=9 animals), capsaicin (50 mg/kg/day; prepared by emulsification in 10% Tween 80 and 10% ethanol in sterile 0.9% saline) was injected subcutaneously on a daily basis for three consecutive days. Injections were made into a site between the scapulae. Since administration of capsaicin causes neuropeptide release and pain, the all injections were given under general anesthesia with maintenance of general anesthesia for thirty minutes after injection. Bupivicaine was also administered subcutaneously at the site of the capsaicin injection. Furthermore, to counteract any respiratory complications that could arise due to the administration of capsaicin, every animal also received an intraperitoneal injection of atropine (0.2 mg/kg), and terbutaline (0.2 mg/kg) fifteen minutes prior to capsaicin injection. Into Group 2 (n=6 animals) and Group 4 (n=9 animals), a similar volume of sterile saline was injected via the same method. All other medications were given as in the treated groups. There were no signs of infection, discomfort, or unusual behavior in the treated rats. On the third day of capsaicin or control treatment, rats in Groups 3 and 4 underwent complete rupture of one MCL. Contralateral legs were used as sham controls. […]
# Neuropeptide Radioimmunoassay: Four MCLs from all groups were used for quantification of neuropeptide concentrations via RIA. […]
# [2] = tested on: ruptured MCL of a FNT rat; assay: Local neuropeptide delivery to ruptured MCL of femoral nerve transected (FNT) rats: mechanical testing, histomorphology; assay type: in vivo
# Text: Surgical Procedure: Thirteen female Wistar rats (278 g to 315 g) were divided into two groups: femoral nerve transection (FNT) or sham control. All rats were anesthetized with isofluorane (isofluorane 0.5-3%). […] Skin covering the anterior inguinal region was shaved and prepared for surgery. A skin incision approximately 15 mm long was made and the fascia distal to the inguinal was incised. The femoral artery, vein, and nerve were exposed and the femoral nerve was isolated and transected (with removal of a 5 mm segment of the nerve) using 3-0 dexon suture. The fascia and skin were closed in two layers with 3-0 continuous dexon suture. Immediately following FNT, rats from each group (n=4 FNT; n=3 controls) underwent a complete surgical rupture of the MCL to one knee. The contra-lateral knee underwent sham surgery. Two weeks post-knee surgery, rats were sacrificed using an overdose of pentobarbitone (150 mg/kg).
# Local delivery of NPs and NP inhibitors is important to identify the specific roles of individual NPs on healing tissues. An animal model for the local delivery of NPs has been developed and is presented in this Example. Briefly, NP infused mini-osmotic pumps were implanted subcutaneously into the back of rats. A small catheter running from the pump to an intramuscular space above the MCL was secured to the rat. […]
# healing MCL = assay: Local neuropeptide delivery to normally innervated healing MCL: mechanical testing, histomorphology; assay type: in vivo, rat
# Protocol: Animal Model and Surgery: Forty female Wistar rats (200-250 g) were divided into five groups. To each group, one of the following neuropeptide solutions was delivered to the intramuscular space above a healing MCL: SP (75 pg/100 μl); CGRP (10 pg/100 μl); NPY (65 pg/100 μl); VIP (100 pg/100 μl); and a combination of NPY and VIP (NPY 65 pg/100 μl; VIP 100 pg/100 μl).
# All rats underwent bilateral MCL rupture. Neuropeptides were then delivered ruptured MCLs unilaterally. Neuropeptide infused mini-osmotic pumps (Alzet Corp.) were implanted subcutaneously into the back of each rat. A small catheter running from the pump was run to an intramuscular space above the MCL and was secured. Within minutes of surgical intervention, all rats recovered and had normal movement and behavior (grooming, feeding, etc.).
# Mechanical Testing: Mechanical testing was performed as described in Chapter 2. Briefly, animal hind limbs from all groups (n=5 for all groups) were disarticulated at the hip joint and stored at −80° C. until testing. On the day of testing, MCLs including intact femoral and tibial bone sections were excised for ex vivo testing. Ligament thickness and width was measured optically, and MCL area was estimated with elliptical geometry. For strain measurements, optical markers were placed onto the ligament tissue near the insertion sites. A small preload of 0.1N was applied to the ligaments in order to obtain a uniform starting point. The ligaments were then preconditioned to 1% strain for 10 cycles. After preconditioning, ligaments were pulled to failure at a rate of 10% per second.
# Tissue displacement was obtained using video dimensional analysis using equations (1) and (2) supra. The mechanical properties that were examined in this study were maximum force, ultimate stress, strain at failure, elastic modulus, and area. Statistical analysis was performed using paired ttests to compare each treated MCL to its contralateral control (alpha=0.05).
# Ligaments were immediately fixed in formalin fixative for three days at room temperature. Specimens were embedded in paraffin, sectioned (6 μm), mounted on slides, and stained with hematoxylin and eosin (H&E).
# [3] = tested on: bovine articular chondrocytes; assay: Bovine chondrocytes proliferation assay (CellTiter 96 AQueous One); assay type: cell-based; conditions: CGRP 100 pg/ml, NPY 50 ng/ml, SP 500 pg/ml, VIP 1 ng/ml
# Protocol: (§1) Cartilage chunks were then digested at 37° C. in DMEM containing 0.05% hyaluronidase for 30 minutes, followed by 0.05% collagenase digestion overnight. The digests were filtered through 40-micron nylon mesh and centrifuged at 600×g for 20 minutes. The cell pellets were then resuspended in DMEM and counted using a hemacytometer.
# (§2) Cells were plated at 1×10^5 cells/well in 12-well plates (n=9) for proteoglycan assays and at 2×10^4 cells/well in 96-well plates (n=16) for proliferation assays. The culture volumes were 1 ml/well in 12-well plates and 100 μl/well in 96-well plates.
# The plates were incubated at 37° C. in a humidified CO2 incubator for 3 days to allow the cells to recover from the harvesting procedure.
# The media were then changed to serum-free (i.e., 0.1% BSA) DMEM containing neuropeptides at the following concentrations: (a) control; (b) CGRP (100 pg/ml); (c) NPY 50 ng/ml; (d) SP (500 pg/ml); and (e) VIP (1 ng/ml).
# (§3) On Day 3 of treatment, 20 μl of CellTiter 96® AQueous One Solution Cell Proliferation Assay (Promega Corporation, Madison, Wis.) was added to each well of the 96-well cultures for 60 minutes, and cells in the 12-well plates were digested with 0.125 units of papain/well overnight. After the 60-minute incubation, the absorbance of the color generated by the cells in the 96-well plates was measured at wavelength 490 nm. […]
# [4] = tested on: bovine articular chondrocytes; assay: Bovine chondrocytes glycosaminoglycan assay (DMMB); assay type: cell-based; conditions: CGRP 100 pg/ml; Day 3 of treatment; individual wells
# Protocol: as §1, §2
# The plates were incubated at 37° C. in a humidified CO2 incubator for 3 days to allow the cells to recover from the harvesting procedure. […]
# as §3
# Following papain digestion of the cultures in 12-well plates, the amount of glycosaminoglycan (representative of proteoglycans) in each well was measured using the dimethylmethylene blue (DMMB) dye-binding assay. The results were statistically analyzed and plotted. […]
# [5] = tested on: Bovine nucleus pulposus cells; assay: Bovine nucleus pulposus (intervertebral disc) cell proliferation; assay type: cell-based; conditions: CGRP 10 ng/ml, NPY (mcg/ml, SP 5 mcg/ml); day 1, day 2, day 3
# Protocol: Bovine calf spines and femoral condyles were obtained from a slaughterhouse and freshly transported to the laboratory. Nucleus pulposus tissue was carefully dissected, avoiding annular and endplate cartilage tissues, from each disc. Articular cartilage from femoral condyles was dissected in the same manner. […] Cells were harvested by overnight digestion with hyaluronidase and collagenase, followed by filtration. Cells were plated at a density of 1×10^5 cells/ml and incubated at 37° C. in 5% CO2 and 95% air in the presence of each neuropeptide or media only (control). At various time points in growth, cells were collected for proliferation and glycosaminoglycan (GAG) production assays. Varying concentrations of NPs were examined.
# Well established colorimetric and luminescent assays (CellTiter 96® AQueous Non-radioactive Cell Proliferation and CellTiter-Glo® Luminescent Cell Viability Assays, Promega, Madison, Wis.) were used to quantify the effect of each NP on cell proliferation. In addition, corresponding cell cultures during growth were digested with papain to release glycosaminoglycans (GAGs). Dimethyl methylene blue (DMMB) colorimetric assays were used to quantify the amount of GAGs in each culture.
# Multiple samples for test and control groups were performed simultaneously. […]
# [6] = Example 7, two weeks of healing
# [7] = Example 7: normally innervated rats, bilateral MCL rupture, mini-osmotic pump (SP 75, CGRP 10, NPY 65, VIP 100 pg/100 μl), two weeks of healing
Compound,"concentrations of NPY or VIP in intact MCLs ([1]; Group 1: intact MCL, capsaicin treated)",immunofluorescent labeling of neuropeptides in ligaments ([1]; Group 1 and Group 3 ligaments after capsaicin treatment),"histomorphology (H&E) of healing MCL ([2]; SP 75 pg/100 μl or CGRP 10 pg/100, two weeks)","mechanical strength of healing MCL (in words) ([2]; local delivery of SP or CGRP, two weeks of healing)",histomorphology (H&E) of healing MCL (healing MCL; [6]),mechanical strength / healing of MCL (in words) (healing MCL; [6]),failure force (healing MCL; [7]) [N],ultimate stress (healing MCL; [7]) [MPa],proliferation of articular chondrocytes compared to controls (in words) [3],Glycosaminoglycan Assay [4],disc cell proliferation compared to controls [5]
COc1cc(CNC(=O)CCCC/C=C/C(C)C)ccc1O [capsaicin],No changes,disappearance of SP and CGRP,–,–,–,–,–,–,–,–,–
calcitonin gene-related peptide [CGRP],–,–,remained disorganized,No mechanical changes,highly disorganized,weakening in mechanical strength; also recorded: three failed to fully heal,4.0±5.8,1.8±2.5,stimulate proliferation,7.147 μg/dish and 8.873 μg/dish and 7.601 μg/dish and 6.783 μg/dish and 6.965 μg/dish and 5.512 μg/dish and 7.51 μg/dish and 9.691 μg/dish (2×),stimulate disc cell proliferation
